# Reference: patent publication US20060167229A1, “Biologically active peptide conjugates” (priority 2002, published 2006)
# Where “and” joins values, the source holds several entries; their conditions need not be identical. Equal entries are not always repeated.
# How the values were obtained:
# spleen = experiment: Immunity organ weight test, spleen index; type: in vivo, BALB/c mice; conditions: healthy mice, saline 0.53 ± 0.05
# Description: One day after the last test substance administration (day 16), the liver, spleen, and thymus gland were separated and blotted dry with filter paper and weighed. The phagocytosis index α was calculated as below: α=(^3√{square root over ( )}K)(W÷WLS)
# Spleen index (%)=(spleen weight/body weight)×100%
# S180 sarcoma = experiment: Growth of transplanted S180 sarcoma; type: in vivo, BALB/c mice; conditions: controls: IL-2, IFN-γ 3 × 10^5 IU/kg, cyclophosphamide 20 mg/kg
# Description: Intraperitoneal injection, once per day. […] Treatment of all groups with testing substance lasted for 30 days or until the animal died unless otherwise specified.
# Stock S180 sarcoma cells were incubated in DMEM/F12 medium supplemented with 10% fetal bovine serum, 37° C., 5% CO2 for 72 hrs, then washed 3-4 times with Hank's solution at room temperature. Adjust the cell concentration to 1-2×10^9 per litre with Hank's solution. […] The mice were killed by cervical vertebra dislocation. Vigorously growing and non-disrupted tumor masses were harvested and washed clean with sterile saline. The tissue was dispersed in saline to a homogenous cell suspension, in a ratio of 1 g tissue to 4 ml saline. The sarcoma bearing mice model was prepared with an injection of 0.2 ml cell suspension through the armpit. Administration of test substance treatment started as described in section Method 1.
# 2.2 The Tumor Growth Inhibition Index was Calculated According to the Following Formula: Tumor growth inhibition index=(mean tumor weight of control group−mean tumor weight of treatment group)÷mean tumor weight of control group 3.
# interferon (IFN) = test system: interferon (IFN); set-up: species or system BALB/c mice; conditions: mouse, in vivo, ip
# NK cell = NK cell cytotoxicity activity test (spleen cells of treated mice against YAC-1 target cells, MTT); type: in vivo, BALB/c mice; conditions: healthy mice
# Description: The above substances were all dissolved in 0.5 ml saline and injected intraperitoneal (i.p.) for 15 continuous days, once per day.
# Ten mice per group. The day after the last test substance administration, the mice were sacrificed by cervical dislocation. The spleen was isolated aseptically and manually dispersed in cold D-Hank's solution using an injection needle. The dispersed cell suspension was further sieved through a 100 gauge 150 μm diameter stainless steel sieve. After centrifugation at 200 g for 10 minutes, the supernatant was discarded. The cell pellet was re-suspended in 10 volume of Tris-NH4Cl buffer and then kept standing still for 10 minutes at room temperature. The suspended cells were collected by centrifugation at 150 g for 10 minutes. The cells were washed 2-4 times with cold D-Hank's solution by re-suspending and collecting by centrifugation with condition as described above. The washed cells were then diluted to the desired cell densities by RPMI-1640 culture medium, containing 10% fetal bovine serum.
# Mice spleen cells were prepared to 4×10^6/ml as described in section 1.1 above. Target cells YAC-1 were brought to log phase and adjusted to 1×10^5/ml. Using a 96 wells cell culture plate, […] were added to the control well containing only the spleen cells; […] and 100 μl culture medium were added to the control well containing only target cells; 100 μl mouse spleen cells and 100 μl target cells were added to the NK activity assay well. Three parallel sets of the above were prepared per mouse.
# Samples were centrifuged at 150 g for 10 minutes to collect the cells. The supernatant was discarded and 50 μl/well MTT of 1 mg/ml was added. The reaction-mixture was then shaken for 2 minutes, and incubated at 37° C., 5% CO2 for 4 hours. The supernatant was discarded after centrifugation at 150 g for 10 minutes. […] 40 mM HCl-2-propanol was added and shaken for 3 minutes. An ELISA reader was used to obtain OD570 nm of each well referenced at 630 nm.
substance,measurement,setting,value
"IL-2: recombinant human IL (rhIL)-2, Shanghai Huaxin Biotech Inc.; positive control","weight of spleen (spleen index), X ± SD (%)","spleen; Table 28, peptide 5 μg/kg/day (so in the source) i.p. 15 days (IFN-γ, IL-2 3×10^5 IU/kg/day)",0.62 ± 0.07%
same,"weight of spleen (spleen index), X ± SD (%)","spleen; peptide 0.5 μg/kg/day i.p. 15 days (IFN-γ, IL-2 3×10^5 IU/kg/day)",0.62 ± 0.07%
same,Tumor inhibition index (%),S180 sarcoma,46.2%
same,Tumor weight,S180 sarcoma; saline 1.29 ± 0.50,0.69 ± 0.37 g
same,"activity of T lymphocyte in secreting IFN, X ± SD (IU)",interferon (IFN),120 ± 13 IU and 113 ± 17 IU and 105 ± 14 IU and 107 ± 13 IU
same,"NK cell cytotoxic activity, X ± SD (%)","NK cell; peptide 0.5 μg/kg/day i.p. 15 days (IFN-γ, IL-2 3×10^5 IU/kg/day), saline 58 ± 7",74 ± 10 %
same,"NK cell cytotoxic activity, X ± SD (%)","NK cell; peptide 5 μg/kg/day i.p. 15 days (IFN-γ, IL-2 3×10^5 IU/kg/day), saline 60 ± 9",80 ± 8 %
same,"NK cell cytotoxic activity, X ± SD (%)","NK cell; peptide 50 μg/kg/day i.p. 15 days (IFN-γ, IL-2 3×10^5 IU/kg/day), saline 56 ± 8",74 ± 8 %
same,"NK cell cytotoxic activity, X ± SD (%)","NK cell; peptide 500 μg/kg/day i.p. 15 days (IFN-γ, IL-2 3×10^5 IU/kg/day), saline 63 ± 9",77 ± 8 %
